# Binding of CDR-mutated scFvs to a peptide of the spike HR2 region

Source: Engelhart et al. 2022 (doi:10.1038/s41597-022-01779-4), MIT Lincoln Laboratory and A-Alpha Bio; data file from the FLAb repository.

Binding partner: SARS-CoV-2 spike HR2 peptide, sequence PDVDLGDISGINAS.

Parent scFv Ab-14: VH joined to VL by three GGGGS repeats. Changes lie in the heavy chain CDRs alone.
VH: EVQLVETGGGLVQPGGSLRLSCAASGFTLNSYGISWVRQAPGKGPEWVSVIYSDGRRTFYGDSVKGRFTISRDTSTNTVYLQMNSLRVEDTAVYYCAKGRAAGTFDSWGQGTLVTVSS
VL: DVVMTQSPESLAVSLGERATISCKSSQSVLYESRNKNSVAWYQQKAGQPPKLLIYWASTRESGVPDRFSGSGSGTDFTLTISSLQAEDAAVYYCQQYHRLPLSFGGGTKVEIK

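The library (AAYL49) carries one to three amino acid substitutions per variant, with no insertions or deletions. In AlphaSeq, yeast of one mating type display the scFv and yeast of the other type display the target. Pairs that bind mate more often; barcode pairs of the diploids are counted by sequencing. Each replicate has its own calibration line, from reference interactions of the BCL2 family. The assay was run in three technical replicates.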

Positions count from residue 1 of the parent VH; G33R puts R in place of G.
Each Kd is an estimate from the mating assay, the geometric mean of the replicates in which the pair was seen; lower is stronger.
Where no diploid with the target was found in any replicate, the entry reads "nd": below detection, most likely a poor binder, though not proof of it.
As a blank, each scFv also met three strains without target: over library AAYL49, 15% of these pairings were detected, typically at 11 µM and seldom below 680 nM. The control count says in how many pairings with the empty strains this scFv gave a signal.

| changes | Kd (apparent) | detected | signal with controls |
|---|---|---|---|
| G33R+I51E+R100M | 3.4 µM | 2/3 | 1/9 |
| R57K+F59D+G61P | nd | 0/3 | 0/9 |
| R57T+T58Y+D62R | 18 µM | 2/3 | 4/9 |
| D62E+K65E+T104C | 12 µM | 3/3 | 5/9 |
| S31P+G103E | nd | 0/3 | 0/9 |
| G55Q+A102N+F105Q | 14 µM | 1/3 | 2/9 |
| F27H+D54R+G55Q | 69 µM | 2/3 | 3/9 |
| T28W+G33I+V64K | 74 nM | 1/3 | 0/9 |
| L29H+S31E+V50M | 72 µM | 2/3 | 2/9 |
| G55V+K65T+S107A | nd | 0/3 | 0/9 |
| N30T+K65A+F105K | nd | 0/3 | 1/9 |
| G55N+R56P+K65N | nd | 0/3 | 0/9 |
| S31R+S35W | nd | 0/3 | 1/9 |
| R56I+A101Y+D106E | 110 nM | 3/3 | 1/9 |
| N30F+A102K+F105L | 19 µM | 1/3 | 1/9 |
| I51C+A102E+D106N | 57 µM | 1/3 | 1/9 |
| F27P+R57V+Y60Q | 1.9 µM | 1/3 | 0/9 |
| Y32L+A101L+D106V | nd | 0/3 | 0/9 |
| F27P+D62L+A102W | nd | 0/3 | 0/9 |
| Y60N+A102I | 49 µM | 1/3 | 1/9 |
| Y60L+R100S+F105V | 150 nM | 3/3 | 2/9 |
| G26C+G33T+G99T | 40 µM | 1/3 | 5/9 |
| Y52Q+D54T+A102F | 4.2 µM | 1/3 | 2/9 |
| T28R+I51L+D106Y | 89 µM | 1/3 | 1/9 |
| R56V+A101P+D106H | 2.2 µM | 1/3 | 0/9 |
| N30D+R100D+T104P | 93 µM | 2/3 | 7/9 |
| N30P+Y32T+K65T | nd | 0/3 | 2/9 |
| D54I+V64L+R100C | nd | 0/3 | 0/9 |
| N30G+R56H+K65A | 40 nM | 3/3 | 1/9 |
| F27A+G61L | 15 nM | 3/3 | 2/9 |
| V64M+R100W+G103F | nd | 0/3 | 0/9 |
| Y52M+F59Q+G61H | nd | 0/3 | 0/9 |
| G33H+D62H+S63N | nd | 0/3 | 0/9 |
| S31A+S107F | 46 nM | 3/3 | 0/9 |
| G33E+S35P+G61V | 1.8 µM | 1/3 | 1/9 |
| T28H+G55H+G99K | nd | 0/3 | 1/9 |
| T28R+L29S+T58Q | nd | 0/3 | 0/9 |
| L29V+I34R+D54R | nd | 0/3 | 3/9 |
| S31R+D62W | 1.3 µM | 3/3 | 1/9 |
| F27W+I34L+K65L | 57 µM | 2/3 | 5/9 |
| L29C+V50S+D54H | 1.1 µM | 1/3 | 3/9 |
| F27Q+S31R+Y60E | nd | 0/3 | 0/9 |
| G26T+R100Y+A102K | nd | 0/3 | 0/9 |
| G55C+G61K+D106A | nd | 0/3 | 0/9 |
| G33Q+D62Q+K65I | nd | 0/3 | 0/9 |
| V64S+K65W+S107D | 25 µM | 1/3 | 0/9 |
| Y52C+R57A+S63V | 1.2 µM | 1/3 | 1/9 |
| N30K+T58W+F105Q | 2.3 µM | 3/3 | 1/9 |
| N30W+S31M+R100Q | 11 µM | 1/3 | 1/9 |
| Y32W+Y60L+A102W | 1.6 µM | 1/3 | 1/9 |
| N30D+Y32N+S53E | 650 nM | 3/3 | 6/9 |
| T28I+A101T | 19 nM | 3/3 | 0/9 |

Top 5 of the variants detected in all replicates, tightest first:

| changes | Kd (apparent) | detected | signal with controls |
|---|---|---|---|
| F27A+G61L | 15 nM | 3/3 | 2/9 |
| T28I+A101T | 19 nM | 3/3 | 0/9 |
| N30G+R56H+K65A | 40 nM | 3/3 | 1/9 |
| S31A+S107F | 46 nM | 3/3 | 0/9 |
| R56I+A101Y+D106E | 110 nM | 3/3 | 1/9 |